Our source for the IC50 values is publication PMC10600185, “Development and pharmaceutical investigation of novel cervical cancer-targeting and redox-responsive melittin conjugates” (Scientific Reports, 2023).

The nature of series [1]: MTT cytotoxicity assay, NSF. Particulars: human, normal skin fibroblast (NSF) cells, 24 h treatment, serial dilutions 256–1 µg/mL, concentration by modified Mel peptide content, mean of three replicates. The class given is cell-based. On the procedure:
(§1) C-33A ([…], ATCC), HeLa ([…], ATCC), 3T3 (CRL-1658™, ATCC), Normal Skin Fibroblast (CRL-2091™, ATCC) and MCF-7 (HTB-22™, ATCC) cell lines were cultured in complete EMEM, DMEM, DMEM, EMEM, and EMEM (containing 1% Pen/Strep antibiotic and 10% FBS), respectively. Cells from the different lines were seeded at a density of 5 × 10^4 cells/well in 100 µL medium placed in a flat-bottom 96-well plate and incubated at 5% CO2 and 37 °C. After 24 h, the medium was discarded from the 96-well plate. Serial dilutions of peptide/conjugate (i.e., 256–1 µg/mL) were prepared in triplicate in 100 µL complete medium then added onto each well and incubated at 5% CO2 and 37 °C for 24 h. The cytotoxicity was determined by MTT test (MTT, Cell Proliferation Kit, Roche) and measured at 550–690 nm on a microplate reader. The cell cytotoxicity was calculated with respect to control groups treated with only complete medium.
Background: Tetrazolium assays rely on reduction of a dye to a coloured formazan, in cell work by metabolically active cells.

Series [2] in a line: MTT cytotoxicity assay, 3T3. The class given is cell-based. The following applies: mouse, 3T3 cells (embryonic fibroblasts), 24 h treatment, serial dilutions 256–1 µg/mL, concentration by modified Mel peptide content, mean of three replicates. On the procedure: as §1

Values after ≈ are worked out from the molar mass of the structure shown.

As to `CC[C@H](C)[C@H](NC(=O)CN)C(=O)NCC(=O)N[C@@H](C)C(=O)N[C@H](C(=O)N[C@@H](CC(C)C)C(=O)N[C@@H](CCCCN)C(=O)N[C@H](C(=O)N[C@@H](CC(C)C)C(=O)N[C@H](C(=O)N[C@H](C(=O)NCC(=O)N[C@@H](CC(C)C)C(=O)N1CCC[C@H]1C(=O)N[C@@H](C)C(=O)N[C@@H](CC(C)C)C(=O)N[C@H](C(=O)N[C@@H](CO)C(=O)N[C@@H](Cc1c[nH]c2ccccc12)C(=O)N[C@H](C(=O)N[C@@H](CCCCN)C(=O)N[C@@H](CCCNC(=N)N)C(=O)N[C@@H](CCCCN)C(=O)N[C@@H](CCCNC(=N)N)C(=O)N[C@@H](CCC(N)=O)C(=O)N[C@@H](CCC(N)=O)C(N)=O)[C@@H](C)CC)[C@@H](C)CC)[C@@H](C)O)[C@@H](C)O)C(C)C)C(C)C` [Mel, Melittin], the IC50 (commonly the midpoint of a concentration-inhibition curve) at 24 h in series [1] was 32.2 µg/mL (≈ 11.3 µM); in series [2], 73 µg/mL (≈ 25.6 µM).
